The molecules below were run against Cyclic GMP-AMP synthase (Mus musculus) (UniProt Q8C6L5) (assay: Inhibition of cGAS in mouse RAW-Lucia ISG cells at 10 uM preincubated for 1 hr followed by cGAMP addition and measured after 24 hrs by luminescence based QUANTI-Luc assay relative to control). Settings: time 25.0 hrs.
Format: cell-based

Chains of the proteins cited; added tags and fusions are not shown.
UniProt Q8C6L5, whole entry: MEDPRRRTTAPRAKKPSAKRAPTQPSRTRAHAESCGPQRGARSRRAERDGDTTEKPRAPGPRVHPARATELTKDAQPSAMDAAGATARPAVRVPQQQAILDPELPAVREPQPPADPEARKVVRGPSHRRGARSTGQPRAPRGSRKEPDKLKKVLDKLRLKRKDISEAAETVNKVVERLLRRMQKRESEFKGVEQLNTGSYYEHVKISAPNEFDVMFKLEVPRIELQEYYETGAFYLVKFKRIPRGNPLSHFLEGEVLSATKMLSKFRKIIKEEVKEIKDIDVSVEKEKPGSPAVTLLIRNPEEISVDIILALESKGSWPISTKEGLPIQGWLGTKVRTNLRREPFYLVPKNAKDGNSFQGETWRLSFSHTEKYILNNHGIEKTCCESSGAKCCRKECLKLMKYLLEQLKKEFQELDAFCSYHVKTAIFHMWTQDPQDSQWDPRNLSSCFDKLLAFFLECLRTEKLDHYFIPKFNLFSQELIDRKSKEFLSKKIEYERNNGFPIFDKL

inhibition [%] | Structure (SMILES)
-5 | Cn1ccc(-c2cc(Cl)c(Cl)c3[nH]c4c(c23)CN(C(=O)CO)CC4)n1
39 | O=C(CO)N1CCC2(CCc3[nH]c4c(Cl)c(Cl)cc(-c5ccn(C(F)F)n5)c4c3C2)C1 (racemic)
45 | Cn1ccc(-c2cc(Cl)c(Cl)c3[nH]c4c(c23)CC2(CC4)CCN(C(=O)CO)C2)n1 (stereo unspecified)
45 | O=C(CO)N1CCC2(CCc3[nH]c4c(Cl)c(Cl)cc(-c5cnn(C(F)F)c5)c4c3C2)C1 (stereo unspecified)
60 | Nc1cc(-c2cc(Cl)c(Cl)c3[nH]c4c(c23)CC2(CC4)CCN(C(=O)CO)C2)ccn1 (stereo unspecified)

The molecules below were run against Cyclic GMP-AMP synthase (Mus musculus) (UniProt Q8C6L5) (assay: Inhibition of cGAS activation in ds-DNA activated mouse RAW-Lucia ISG cells). Settings: dose 0.5-50 µM.
Format: cell-based

inhibition | Structure (SMILES)
Dose-Dependent Effect | O=C(CO)N1CC[C@@]2(CCc3[nH]c4c(Cl)c(Cl)cc(-c5ccn(C(F)F)n5)c4c3C2)C1
